Reference: patent publication US7459277B2, “Mammalian T1R3 sweet taste receptors” (The Regents of the University of California, priority 2003, dated 2008)

Tested on: mice expressing RASSL (modified k-opioid receptor) in T1R2-cells
Conditions: induced, un-induced and T1R2-rtTA-only control groups

With `OC[C@H]1O[C@@](CO)(O[C@H]2O[C@H](CO)[C@@H](O)[C@H](O)[C@H]2O)[C@@H](O)[C@@H]1O` [sucrose] the behavioral response was “normal responses”.
